According to US6506739B1, “Bis-(N,N'-bis-(2-haloethyl)amino)phosphoramidates as antitumor agents” (dated 2003):

How the values were obtained:
[1] = test system: RPMI 8322 human melanoma cells; test: Cell viability (CellTiter 96 dye conversion); details: read-out: μM to 50% cell viability, 4 days with compound, 1% DMSO, triplicate
Description: RPMI 8322 human melanoma cells (ATCC) were grown at 37 C in MEM supplemented with 10% fetal bovine serum, 1% L-glutamate, and 0.1% gentamicin. The cells were plated at a density of 2×10^6 per well in 96-well microtiter plates. Twenty-four hours later, the medium was replaced with the same medium to which test compounds at final concentrations of 1 μM to 10 mM, and 1% DMSO had been added. The cells were grown in the presence of the compound for an additional 4 days. Each concentration of the compound was tested in triplicate. Cell viability was measured using a standard assay that monitors metabolic conversion of a dye (CellTiter 96™, Promega).

MX-1 human mammary tumor = test: Anti-tumor effects in mice, MX-1 xenograft; details: nude mice with MX-1 tumor
Description: Female, 7 weeks old NCr-tu athymic nude mice were purchased from Charles River Laboratories (Raleigh, N.C.) and acclimated in the laboratories one week prior to experimentation. The animals were housed in microisolator cages, at five per cage, in a 12-hour light/dark cycle. The animals received filtered sterilized water and sterile rodent food d lieitum. Animals were observed daily, and clinical signs such as tumor shrinkage were noted.
Tumor Model. Thirty- to forty mg fragments of MX-1 human mammary tumor were implanted subcutaneously in mice near the right axillary area, using a 12-gauge trocar needle and allowed to grow. Tumors were allowed to reach 75-196 mg in weight (75-196 mm^3 mm in size) before the start of treatment.
Drug Treatment. Compound 3 was formulated fresh daily at a concentration of 10 mg/mL in 5% ethanol/14% propylene glycol/50% PBS. Compound 3 was administered intraperitoneally for five consecutive days at dosages of 55, 75, and 100 mg/kg/dose. Dosing solutions were administered to mice within 4 hours of formulation. Compounds were administered by exact body weight, with the injection volume being 0.1 mL/10 g body weight.
Tumor measurements. The tumors were measured, and the animals were weighed twice weekly, starting with the first day of treatment. Tumor volume was determined by caliper measurements (mm) and using the formula for an ellipsoid L×W^2/2=Volume, where L and W refer to the larger and smaller dimensions collected at each measurement. This formula was also used to calculate tumor weight, assuming a unit density (1 mm^3=1 mg).
Study duration was 28 days after tumor implantation. Any animal whose tumor reached 4 g in weight was sacrificed prior to study termination.

[2] = 55 mg/kg/dose intraperitoneally for five consecutive days
[3] = 75 mg/kg/dose intraperitoneally for five consecutive days
[4] = 100 mg/kg/dose intraperitoneally for five consecutive days

Row | SMILES | IC50 [1] [µM] | Tumor Regression Partial Regression (MX-1 human mammary tumor; [2]) | Tumor-Free (MX-1 human mammary tumor; [2]) | Tumor Regression Partial Regression (MX-1 human mammary tumor; [3]) | Tumor-Free (MX-1 human mammary tumor; [3]) | Tumor Regression Partial Regression (MX-1 human mammary tumor; [4]) | Tumor-Free (MX-1 human mammary tumor; [4])
1 | NCCOP(=O)(N(CCCl)CCCl)N(CCCl)CCCl | > 500 | – | – | – | – | – | –
2 | O=P(OCCO)(N(CCCl)CCCl)N(CCCl)CCCl | – | 0 | 0/8 | 0 | 0/8 | 0 | 0/8
